Source: ChEMBL document CHEMBL1201862, “PubChem BioAssay data set” (2004)
Some of the results follow. These assays gave more results; the selection is not random. The source made the active and inactive calls. No cut-off for these calls is given here.

Target: T1, Parathyroid hormone/parathyroid hormone-related peptide receptor (Homo sapiens) (UniProt Q03431)
T1 sequence (whole entry): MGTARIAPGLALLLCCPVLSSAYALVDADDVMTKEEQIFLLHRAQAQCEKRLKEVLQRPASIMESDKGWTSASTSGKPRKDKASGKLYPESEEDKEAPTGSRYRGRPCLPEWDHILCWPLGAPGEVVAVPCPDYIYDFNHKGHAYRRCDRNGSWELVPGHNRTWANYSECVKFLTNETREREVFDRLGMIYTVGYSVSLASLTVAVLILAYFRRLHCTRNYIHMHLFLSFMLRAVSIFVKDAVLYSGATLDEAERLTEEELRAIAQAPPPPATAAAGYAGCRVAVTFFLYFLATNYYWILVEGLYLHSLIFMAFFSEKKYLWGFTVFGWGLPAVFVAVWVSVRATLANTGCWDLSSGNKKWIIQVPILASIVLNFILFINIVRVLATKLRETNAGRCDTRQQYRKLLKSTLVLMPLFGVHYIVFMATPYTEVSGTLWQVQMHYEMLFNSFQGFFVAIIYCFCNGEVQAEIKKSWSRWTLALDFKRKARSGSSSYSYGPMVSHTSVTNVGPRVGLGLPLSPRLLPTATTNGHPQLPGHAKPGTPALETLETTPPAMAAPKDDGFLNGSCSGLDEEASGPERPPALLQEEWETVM
Assay: qHTS of PTHR Inhibitors: Primary Screen.
Assay type: functional

| Structure (SMILES) | Potency |
| --- | --- |
| CC[n+]1c(/C=C/N(C)c2ccccc2)oc2ccc(Cl)cc21 | inactive |
